Assay results: publication PMC6941952, “A homogeneous bioluminescent immunoassay to probe cellular signaling pathway regulation” (Communications Biology, 2020)
Values joined by “and” are separate entries in the source; they are usually repeats but may differ in a detail not shown here. Equal entries are not always repeated.

Columns and labels:
STAT3 Phospho-Tyr705 = assay: NanoBiT pSTAT3 cell-based immunoassay in A431 cells; design: species or system human; conditions: for P-STAT3, Average: background subtracted, average of replicates
Experimental: Prior to NanoBiT Cell-Based Immunoassay, 50,000 cells were seeded in 160 µl of complete growth media per well of a 96-well plate and incubated overnight. […] If necessary, the cell culture media were replaced with serum-free media after the cells were stably adherent on the plate and incubated overnight. To treat cells with activators or inhibitors, medium was changed to 30 µl of medium containing inhibitors. If activation of a specific pathway is needed, the cells were stimulated with 10 µl of medium containing activators. To lyse the cells, 10 µl of lysis buffer containing 0.1% digitonin diluted in 1X immunoassay buffer with protease and phosphatase inhibitors was added and the plates were mixed vigorously for 20 min. Then, 50 µl of an antibody mix containing two primary antibodies against the target protein and NanoBiT detecting antibodies (0.3 µl each per well), diluted in 1X immunoassay buffer was added to the lysates. The plates were incubated at 23 °C for 90 min, followed by the addition of 25 µl of Nano-Glo® reagent consisting of Nano-Glo® Luciferase Assay Substrate mixed with 1X immunoassay buffer. Luminescence was measured using a plate-reading luminometer.
Single dose or dose response inhibitor treatments were performed prior to activation of the pathways as follows. For IκBα, the cells were treated in 30 µl medium with IKK16 or MG132 for 60 min before the addition of 10 µl of DMEM containing appropriate concentration of TNFα. To measure phosphorylation of AKT or STAT3, the corresponding NanoBiT immunoassays were developed with MCF-7 or A431 cells, respectively, according the same scheme used to develop the IκBα assay using the primary antibodies for AKT and STAT3 described in the reagents section. […] Treatment with LY294002 was performed in 30 µl medium and cells were incubated for 60 min before the addition of 1 µM Insulin. To measure STAT3 phosphorylation, A431 cells were incubated overnight in DMEM medium without serum. […] After addition of the stimulators, the cells were incubated for additional times as follows. IκBα phosphorylation and degradation analyses required both time courses and single time points as described in figures. […] The NanoBiT immunoassay protocol was followed as described above.
(§1) All 96-well assay plates were read using a GloMax® 96 Microplate Luminometer from Promega. The instrument was set to 0.5 s integration time. In order to obtain net change of signal, the reagent background values (signal from the well containing all reagent except primary antibodies) were subtracted from the sample values. To plot and analyze the data, Microsoft Excel and GraphPad Prism® Software were used. IC50 values were determined by using a nonlinear regression fit to a sigmoidal dose response (variable slope).

total STAT3 = assay: NanoBiT cell-based immunoassay, total STAT3 in A431 cells; design: species or system human; conditions: for Total STAT3, Average: background subtracted, average of replicates; for Total Stat3, Raw data / Total Stat3, Subtract reagent background: single replicates
Experimental: Prior to NanoBiT Cell-Based Immunoassay, 50,000 cells were seeded in 160 µl of complete growth media per well of a 96-well plate and incubated overnight. The cells were checked under microscope and it was determined that 50,000 cells per well in 96-well plate is under 90% confluency for all cells tested. If necessary, the cell culture media were replaced with serum-free media after the cells were stably adherent on the plate and incubated overnight. To treat cells with activators or inhibitors, medium was changed to 30 µl of medium containing inhibitors. If activation of a specific pathway is needed, the cells were stimulated with 10 µl of medium containing activators. To lyse the cells, 10 µl of lysis buffer containing 0.1% digitonin diluted in 1X immunoassay buffer with protease and phosphatase inhibitors was added and the plates were mixed vigorously for 20 min. Then, 50 µl of an antibody mix containing two primary antibodies against the target protein and NanoBiT detecting antibodies (0.3 µl each per well), diluted in 1X immunoassay buffer was added to the lysates. The plates were incubated at 23 °C for 90 min, followed by the addition of 25 µl of Nano-Glo® reagent consisting of Nano-Glo® Luciferase Assay Substrate mixed with 1X immunoassay buffer. Luminescence was measured using a plate-reading luminometer.
Single dose or dose response inhibitor treatments were performed prior to activation of the pathways as follows. For IκBα, the cells were treated in 30 µl medium with IKK16 or MG132 for 60 min before the addition of 10 µl of DMEM containing appropriate concentration of TNFα. To measure phosphorylation of AKT or STAT3, the corresponding NanoBiT immunoassays were developed with MCF-7 or A431 cells, respectively, according the same scheme used to develop the IκBα assay using the primary antibodies for AKT and STAT3 described in the reagents section. For the AKT assay, MCF-7 cells were incubated overnight in phenol-red free DMEM medium (Gibco #21063-029) without serum. Treatment with LY294002 was performed in 30 µl medium and cells were incubated for 60 min before the addition of 1 µM Insulin. To measure STAT3 phosphorylation, A431 cells were incubated overnight in DMEM medium without serum. […] After addition of the stimulators, the cells were incubated for additional times as follows. IκBα phosphorylation and degradation analyses required both time courses and single time points as described in figures. For AKT and STAT3, cells were treated with Insulin or IL-6 for 10 min and 30 min, respectively. The NanoBiT immunoassay protocol was followed as described above.
as §1

[1] = IL-6 +Ruxolitinib, single replicates
[2] = inhibitor 0.0190735 nM, IL-6 10 ng/ml
[3] = inhibitor 0.038147 nM, IL-6 10 ng/ml
[4] = inhibitor 0.0762939 nM, IL-6 10 ng/ml
[5] = inhibitor 0.152588 nM, IL-6 10 ng/ml
[6] = inhibitor 0.305176 nM, IL-6 10 ng/ml
[7] = inhibitor 0.610352 nM, IL-6 10 ng/ml
[8] = inhibitor 1.2207 nM, IL-6 10 ng/ml
[9] = inhibitor 2.44141 nM, IL-6 10 ng/ml
[10] = inhibitor 4.88281 nM, IL-6 10 ng/ml
[11] = inhibitor 9.76562 nM, IL-6 10 ng/ml
[12] = inhibitor 19.5312 nM, IL-6 10 ng/ml
[13] = inhibitor 39.0625 nM, IL-6 10 ng/ml
[14] = inhibitor 78.125 nM, IL-6 10 ng/ml
[15] = inhibitor 156.25 nM, IL-6 10 ng/ml
[16] = inhibitor 312.5 nM, IL-6 10 ng/ml
[17] = inhibitor 625 nM, IL-6 10 ng/ml
[18] = inhibitor 2500 nM, IL-6 10 ng/ml
[19] = inhibitor 5000 nM, IL-6 10 ng/ml
[20] = substance alone, single replicates

N#CC[C@H](C1CCCC1)n1cc(-c2ncnc3[nH]ccc23)cn1 [Ruxolitinib]
P-STAT3, Average (STAT3 Phospho-Tyr705; IL-6 +Ruxolitinib): 12717
P-STAT3 Raw data (STAT3 Phospho-Tyr705; [1]): 116100 and 116600 and 113500
P-STAT3 Subtract reagent background (STAT3 Phospho-Tyr705; [1]): 13417 and 13917 and 10817
P-STAT3 Raw data (STAT3 Phospho-Tyr705; [2]): 257300 and 246500 and 233700
P-STAT3 Subtract reagent background (STAT3 Phospho-Tyr705; [2]): 156000 and 145200 and 132400
P-STAT3 Raw data (STAT3 Phospho-Tyr705; [3]): 256100 and 261500 and 231400
P-STAT3 Subtract reagent background (STAT3 Phospho-Tyr705; [3]): 154650 and 160050 and 129950
P-STAT3 Raw data (STAT3 Phospho-Tyr705; [4]): 255500 and 250300 and 235000
P-STAT3 Subtract reagent background (STAT3 Phospho-Tyr705; [4]): 155910 and 150710 and 135410
P-STAT3 Raw data (STAT3 Phospho-Tyr705; [5]): 255700 and 280000 and 255200
P-STAT3 Subtract reagent background (STAT3 Phospho-Tyr705; [5]): 155315 and 179615 and 154815
P-STAT3 Raw data (STAT3 Phospho-Tyr705; [6]): 258100 and 254400 and 250000
P-STAT3 Subtract reagent background (STAT3 Phospho-Tyr705; [6]): 159295 and 155595 and 151195
P-STAT3 Raw data (STAT3 Phospho-Tyr705; [7]): 244000 and 241000 and 250600
P-STAT3 Subtract reagent background (STAT3 Phospho-Tyr705; [7]): 146610 and 143610 and 153210
P-STAT3 Raw data (STAT3 Phospho-Tyr705; [8]): 257700 and 257900 and 230400
P-STAT3 Subtract reagent background (STAT3 Phospho-Tyr705; [8]): 157845 and 158045 and 130545
P-STAT3 Raw data (STAT3 Phospho-Tyr705; [9]): 266600 and 245900 and 218600
P-STAT3 Subtract reagent background (STAT3 Phospho-Tyr705; [9]): 169855 and 149155 and 121855
P-STAT3 Raw data (STAT3 Phospho-Tyr705; [10]): 225900 and 226900 and 235900
P-STAT3 Subtract reagent background (STAT3 Phospho-Tyr705; [10]): 131715 and 132715 and 141715
P-STAT3 Raw data (STAT3 Phospho-Tyr705; [11]): 177600 and 230100 and 210700
P-STAT3 Subtract reagent background (STAT3 Phospho-Tyr705; [11]): 85335 and 137835 and 118435
P-STAT3 Raw data (STAT3 Phospho-Tyr705; [12]): 217900 and 227500 and 240800
P-STAT3 Subtract reagent background (STAT3 Phospho-Tyr705; [12]): 139500 and 116600 and 126200
P-STAT3 Raw data (STAT3 Phospho-Tyr705; [13]): 207600 and 195600 and 193900
P-STAT3 Subtract reagent background (STAT3 Phospho-Tyr705; [13]): 92450 and 106150 and 94150
P-STAT3 Raw data (STAT3 Phospho-Tyr705; [14]): 163400 and 161700
P-STAT3 Subtract reagent background (STAT3 Phospho-Tyr705; [14]): 62110 and 63810
P-STAT3 Raw data (STAT3 Phospho-Tyr705; [15]): 136900 and 139600 and 147700
P-STAT3 Subtract reagent background (STAT3 Phospho-Tyr705; [15]): 47315 and 36515 and 39215
P-STAT3 Raw data (STAT3 Phospho-Tyr705; [16]): 126400 and 125700 and 124300
P-STAT3 Subtract reagent background (STAT3 Phospho-Tyr705; [16]): 25495 and 27595 and 26895
P-STAT3 Raw data (STAT3 Phospho-Tyr705; [17]): 120800 and 122000 and 128400
P-STAT3 Subtract reagent background (STAT3 Phospho-Tyr705; [17]): 31010 and 23410 and 24610
P-STAT3 Raw data (STAT3 Phospho-Tyr705; [18]): 117400 and 121900 and 116400
P-STAT3 Subtract reagent background (STAT3 Phospho-Tyr705; [18]): 19655 and 20655 and 25155
P-STAT3 Raw data (STAT3 Phospho-Tyr705; [19]): 120000 and 115000
P-STAT3 Subtract reagent background (STAT3 Phospho-Tyr705; [19]): 20815 and 25815
P-STAT3 Raw data (STAT3 Phospho-Tyr705; inhibitor 10000 nM, IL-6 10 ng/ml): 106300 and 118200 and 101900
P-STAT3, Average (STAT3 Phospho-Tyr705; substance alone): 9717
P-STAT3 Raw data (STAT3 Phospho-Tyr705; [20]): 114100 and 114700 and 108400
P-STAT3 Subtract reagent background (STAT3 Phospho-Tyr705; [20]): 11417 and 12017 and 5717
Total STAT3, Average (total STAT3; IL-6 +Ruxolitinib): 1624317
Total Stat3, Raw data (total STAT3; IL-6 +Ruxolitinib): 1435000 and 1958000 and 1788000
Total Stat3, Subtract reagent background (total STAT3; IL-6 +Ruxolitinib): 1855317 and 1685317 and 1332317
Total STAT3, Average (total STAT3; substance alone): 1546650
Total Stat3, Raw data (total STAT3; substance alone): 1364000 and 1867000 and 1717000
Total Stat3, Subtract reagent background (total STAT3; substance alone): 1764317 and 1614317 and 1261317

IL-6
Total Stat3, Raw data (total STAT3; substance alone): 1361000
Total Stat3, Subtract reagent background (total STAT3; substance alone): 1258317
